# Permeability data for macrocyclic peptides

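The data file gives no further conditions (lipid, pH, time, direction or concentration), and values from different papers need not be comparable. The list need not hold all peptides of the study. Entries at the database's floor value (log10 P of -10) are not listed.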

PAMPA is the parallel artificial membrane permeability assay, which has no cells and reads passive diffusion. Permeability is given as log10 of P in cm/s; higher (less negative) is more permeable.

| compound | PAMPA (log10 cm/s) |
|---|---|
| CC(C)C[C@@H]1NC(=O)[C@H](C)NC(=O)[C@H](Cc2ccccc2)NC(=O)[C@H](CC(C)C)NC(=O)[C@H]2CCCN2C(=O)C[C@H](Cc2ccccc2)NC1=O | -6.46 |
| CCCN1CC(=O)N(C)[C@@H](CC(C)C)C(=O)N(C)[C@H](CC(C)C)C(=O)N2CCC[C@H]2C(=O)N(C)[C@@H](CC(C)C)C(=O)N[C@@H](Cc2ccccc2)C(=O)N2CCC[C@H]2C1=O | -5.04 |
| CC(C)C[C@@H]1C(=O)N[C@@H](Cc2ccccc2)CC(=O)N2CCC[C@H]2C(=O)N(C)[C@@H](CC(C)C)C(=O)N[C@@H](Cc2ccccc2)C(=O)N2CCC[C@H]2C(=O)N(C)[C@@H](C)C(=O)N1C | -5.50 |
| CC(C)C[C@H]1NC(=O)[C@@H](C)NC(=O)[C@H](Cc2ccccc2)NC(=O)[C@@H](CC(C)C)NC(=O)[C@@H]2CCCN2C(=O)[C@@H](CC(C)C)NC1=O | -6.70 |
| CCCN1CC(=O)N[C@H](CC(C)C)C(=O)N[C@@H](CC(C)C)C(=O)N2CCC[C@@H]2C(=O)N[C@H](CC(C)C)C(=O)N[C@@H](Cc2ccccc2)C(=O)N2CCC[C@@H]2C1=O | -5.64 |
| CCCN1CC(=O)N(Cc2ccccc2)CC(=O)N(C)[C@@H](CC(C)C)C(=O)N2CCC[C@@H]2C(=O)N[C@H](CC(C)C)C(=O)N[C@@H](Cc2ccccc2)C(=O)N2CCC[C@H]2C1=O | -6.12 |
| CC(C)C[C@H]1NC(=O)[C@@H](C)NC(=O)[C@H](Cc2ccccc2)NC(=O)CN(Cc2ccccc2)C(=O)[C@@H]2CCCN2C(=O)[C@@H](CC(C)C)NC1=O | -6.63 |
| CC(C)C[C@@H]1C(=O)N(Cc2ccccc2)CC(=O)N2CCC[C@@H]2C(=O)N(C)[C@@H](CC(C)C)C(=O)N[C@@H](Cc2ccccc2)C(=O)N2CCC[C@@H]2C(=O)N(C)[C@@H](C)C(=O)N1C | -5.48 |
| CC(C)C[C@@H]1C(=O)N[C@@H](Cc2ccccc2)C(=O)N2CCC[C@H]2C(=O)N(C)[C@H](C)C(=O)N(C)[C@@H](CC(C)C)C(=O)N[C@H](CC(C)C)C(=O)N2CCC[C@H]2C(=O)N1C | -5.42 |
| CC(C)C[C@@H]1NC(=O)[C@@H](C)N(C)C(=O)[C@@H]2CCCN2C(=O)[C@H](Cc2ccccc2)NC(=O)[C@H](CC(C)C)N(C)C(=O)[C@H]2CCCN2C(=O)[C@H](CC(C)C)NC1=O | -5.73 |
| CC(C)C[C@@H]1NC(=O)[C@@H](CC(C)C)N(C)C(=O)[C@H](C)N(C)C(=O)[C@@H]2CCCN2C(=O)[C@H](Cc2ccccc2)NC(=O)[C@@H](CC(C)C)NC(=O)[C@H]2CCCN2C1=O | -5.95 |
| CC(C)C[C@@H]1C(=O)N[C@H](CC(C)C)C(=O)N2CCC[C@H]2C(=O)N(C)[C@H](CC(C)C)C(=O)N[C@@H](Cc2ccccc2)C(=O)N2CCC[C@@H]2C(=O)N[C@@H](Cc2ccccc2)CC(=O)N1C | -5.11 |
| CC(C)C[C@@H]1NC(=O)[C@@H](C)NC(=O)[C@H]2CCCN2C(=O)[C@H](Cc2ccccc2)NC(=O)CN(Cc2ccccc2)C(=O)[C@H]2CCCN2C(=O)[C@H](CC(C)C)NC1=O | -5.53 |
| CC(C)C[C@@H]1NC(=O)[C@@H](C)NC(=O)[C@H](Cc2ccccc2)NC(=O)CN(Cc2ccccc2)C(=O)[C@@H]2CCCN2C(=O)[C@@H](CC(C)C)N(C)C1=O | -5.78 |
| CC(C)C[C@H]1NC(=O)[C@@H](C)N(C)C(=O)[C@H]2CCCN2C(=O)[C@H](Cc2ccccc2)NC(=O)CN(Cc2ccccc2)C(=O)[C@@H]2CCCN2C(=O)[C@H](CC(C)C)N(C)C1=O | -5.57 |
| CC(C)C[C@H]1NC(=O)[C@H](CC(C)C)N(C)C(=O)[C@H](C)NC(=O)[C@H](Cc2ccccc2)NC(=O)[C@H](CC(C)C)N(C)C(=O)[C@@H]2CCCN2C1=O | -5.25 |
| CC(C)C[C@@H]1NC(=O)[C@@H](C)N(C)C(=O)[C@H](Cc2ccccc2)NC(=O)[C@H](CC(C)C)NC(=O)[C@@H]2CCCN2C(=O)[C@@H](CC(C)C)NC1=O | -5.08 |
| CC(C)C[C@@H]1C(=O)N[C@@H](Cc2ccccc2)C(=O)N2CCC[C@H]2C(=O)N[C@@H](Cc2ccccc2)CC(=O)N(C)[C@@H](CC(C)C)C(=O)N[C@@H](Cc2ccccc2)CC(=O)N2CCC[C@@H]2C(=O)N1C | -5.73 |
| CC(C)C[C@@H]1C(=O)N(Cc2ccccc2)CC(=O)N2CCC[C@H]2C(=O)N(C)[C@@H](CC(C)C)C(=O)N[C@@H](Cc2ccccc2)C(=O)N2CCC[C@@H]2C(=O)N(C)[C@H](C)C(=O)N1C | -5.42 |
| CC(C)C[C@@H]1C(=O)N[C@@H](Cc2ccccc2)C(=O)N2CCC[C@H]2C(=O)N(C)[C@@H](C)C(=O)N(C)[C@@H](CC(C)C)C(=O)N(Cc2ccccc2)CC(=O)N2CCC[C@@H]2C(=O)N1C | -5.41 |

The 2 highest values of PAMPA among the entries above:

| compound | PAMPA (log10 cm/s) |
|---|---|
| CCCN1CC(=O)N(C)[C@@H](CC(C)C)C(=O)N(C)[C@H](CC(C)C)C(=O)N2CCC[C@H]2C(=O)N(C)[C@@H](CC(C)C)C(=O)N[C@@H](Cc2ccccc2)C(=O)N2CCC[C@H]2C1=O | -5.04 |
| CC(C)C[C@@H]1NC(=O)[C@@H](C)N(C)C(=O)[C@H](Cc2ccccc2)NC(=O)[C@H](CC(C)C)NC(=O)[C@@H]2CCCN2C(=O)[C@@H](CC(C)C)NC1=O | -5.08 |

Source: CycPeptMPDB (Li et al. 2023), which took these values from Townsend et al. 2020, doi:10.26434/chemrxiv.13335941.v1.